The series can be described thus: Particle size distribution measurement by laser diffraction. To be noted: sieved below 63 μm, n = 3. It counts as physicochemical. As to the method: The particle size and size distribution of the powders was determined using laser diffraction equipment, Mastersizer 3000 (Malvern Instruments Ltd, Worcestershire, UK) with Aero S dry powder disperser. Prior to the analysis, both raw DEX and DEX cocrystals powders were sifted with a diameter under 63 μm to control the particle size variation. The particle size distribution was calculated from the light scattering pattern using Mie theory. Particle size at 10% (D10), 50% (D50), 90% (D90) of the volume distribution were calculated automatically using the Mastersizer 3000 software […]. Span was calculated as (D90-D10)/D50. All the samples were measured in triplicate.

In the case of `C[C@@H]1C[C@H]2[C@@H]3CCC4=CC(=O)C=C[C@]4(C)[C@@]3(F)[C@@H](O)C[C@]2(C)[C@@]1(O)C(=O)CO` [DEX, 9-fluoro-11β,17,21-trihydroxy-16α-methylpregna-1,4-diene-3,20-dione, reference compound], the “Volumetric size D90” value amounted to 2.76 ± 1.54 μm.

The record behind these values is US20230382944A1, “NOVEL COCRYSTALS OF DEXAMETHASONE” (Versitech Limited, priority 2022, published 2023).
